Results published in article PMC5228031, “CDK4/6-dependent activation of DUB3 regulates cancer metastasis through SNAIL1” (Nature Communications, 2017).

Target: T1, GST-DUB3 (UniProt Q6R6M4 1-530)
T1 construct: cloned into pGEX4T-1; also called GST-DUB3 WT; source: bacterial expressed, purified recombinant
T1 sequence (looked up): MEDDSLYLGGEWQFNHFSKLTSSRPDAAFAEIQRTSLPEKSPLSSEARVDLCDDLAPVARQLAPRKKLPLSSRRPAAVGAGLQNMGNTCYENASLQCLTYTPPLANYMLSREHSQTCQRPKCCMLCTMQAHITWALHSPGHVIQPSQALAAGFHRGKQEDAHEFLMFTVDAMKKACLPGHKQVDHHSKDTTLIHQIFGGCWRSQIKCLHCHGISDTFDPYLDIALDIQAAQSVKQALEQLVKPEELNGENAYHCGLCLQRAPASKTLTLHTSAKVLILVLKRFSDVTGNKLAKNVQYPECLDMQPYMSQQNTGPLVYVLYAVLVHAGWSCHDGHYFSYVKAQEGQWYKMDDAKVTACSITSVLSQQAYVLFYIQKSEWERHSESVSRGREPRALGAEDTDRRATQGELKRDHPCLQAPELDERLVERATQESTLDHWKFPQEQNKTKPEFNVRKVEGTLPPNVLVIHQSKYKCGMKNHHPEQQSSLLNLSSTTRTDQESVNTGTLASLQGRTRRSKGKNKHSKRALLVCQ
Test: pull-down; purified recombinant GST or GST fusion protein and His-tagged protein incubated in vitro
Details: both partners purified

binding result: binds
B1: His-SNAIL1 (natural protein, UniProt O95863 1-264, looked up)
chain: MPRSFLVRKPSDPNRKPNYSELQDSNPEFTFQQPYDQAHLLAAIPPPEILNPTASLPMLIWDSVLAPQAQPIAWASLRLQESPRVAELTSLSDEDSGKGSQPPSPPSPAPSSFSSTSVSSLEAEAYAAFPGLGQVPKQLAQLSEAKDLQARKAFNCKYCNKEYLSLGALKMHIRSHTLPCVCGTCGKAFSRPWLLQGHVRTHTGEKPFSCPHCSRAFADRSNLRAHLQTHSDVKKYQCQACARTFSRMSLLHKHQESGCSGCPR
notes: cloned into PET28A; also called recombinant His-SNAIL1; source: purified recombinant
